Results on 94 compounds are retold here after PubChem BioAssay AID651819 (National Center for Advancing Translational Sciences (NCATS), 2012).

The list shows a part of the results, in another mix than the full data. Some salts and complexes are drawn in separate pieces, as the source files them; their charges need not balance. Active and inactive are the calls of the source. Cut-off read from the data, not from the text of the source: active = activity change below about -30%; inactive = the rest.
% is set by controls: 0 for no effect and ±100 for the full control effect.

This experiment concerns cytosolic chaperonin (CCT/TRiC complex). Kind of experiment: High-Throughput Screening for Modulators of Cytosolic Chaperonin Activity. Particulars: purified chaperonin ATPase assay, HTRF ADP detection, 30 min; stronger effect = lower value. The essentials:
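TRiC (40 or 20 nM final, by batch activity) in 30 mM Tris pH 7.4, 100 mM KCl, 5 mM MgCl2, 1 mM DTT was treated with compound at 76 uM single dose, then 10 uM ATP, 30 min at 37 °C. ADP was read by HTRF Transcreener.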
In general terms: In TR-FRET formats the signal depends on donor and acceptor labels being close together.
With `CCCOc1ccc(C(=O)NCC2(N(C)C)CCCCC2)cc1OC`, the activity change is inactive: 0.311%. Regarding `Cc1ccc(C(=O)NCC2(N(C)C)CCCCC2)o1`, the activity change is inactive: 1.93%. On to `COc1ccc(C(c2nnnn2C2CCCC2)N2CCC(n3c(=O)[nH]c4ccccc43)CC2)cc1` (centres undefined), for which the activity change was inactive: -0.29%. As to `O=[N+]([O-])c1cc([N+](=O)[O-])c(Nc2ccc(Cl)cc2)c([N+](=O)[O-])c1`, the activity change is inactive: 0.442%. As for `CN1CCC(Nc2cccc(F)c2)CC1`, the activity change was inactive: -0.068%. For the compound `O=C(NCC1(N2CCCCC2)CCCCC1)c1cncc(Br)c1`, the activity change was inactive: -3.33%. For the compound `COc1ccc2c(c1O)-c1c(O)c(OC)cc3c1[C@H](C2)[N+](C)(C)CC3.O=[N+]([O-])c1cc([N+](=O)[O-])c([O-])c([N+](=O)[O-])c1[O-]`, the activity change was inactive: -3.22%. As for `O=C(OC1CN2CCC1CC2)c1ccc([N+](=O)[O-])cc1` (centres undefined), the figure is inactive: -3.22%; as for `Cc1cccc(NC2(C#N)CCN(Cc3ccccc3)CC2)c1`, inactive: -0.131%. In the case of `CSc1ccccc1C(=O)NCC1(N2CCCCC2)CCCCC1` it was inactive: -1.23%. For the compound `CCCCn1nnnc1C(CC)N1CCC(n2c(=O)[nH]c3ccccc32)CC1` (centres undefined), the activity change is inactive: -2.51%. In the case of `O=C(NCC1(N2CCCCC2)CCCCC1)c1cccs1` it was inactive: 3.68%; in that of `CCCCn1nnnc1C(c1cccs1)N1CCC(n2c(=O)[nH]c3ccccc32)CC1` (centres undefined), inactive: -5.23%.

As for `O=C(NCC1(N2CCCCC2)CCCCC1)c1ccc(=O)[nH]c1`, the activity change was inactive: 1.2%. `COc1ccc(C(=O)NCC2(N3CCCCC3)CCCCC2)c(OC)c1OC`: the activity change was inactive: -1.41%. As for `CC(C)(C)OC(=O)N1CCC(N(C(=O)c2ccccc2)c2ccc(F)cc2)CC1`, the activity change was inactive: 1.61%. Turning to `CCC(c1nnnn1C1CCCC1)N1CCC(n2c(=O)[nH]c3ccccc32)CC1` (centres undefined), the activity change is inactive: 0.104%. Regarding `COc1ccc(C(=O)NCC2(N3CCCCC3)CCCCC2)cc1`, the activity change was inactive: -3.72%. As for `CCCCn1nnnc1C(c1ccc(OC)cc1)N1CCC(n2c(=O)[nH]c3ccccc32)CC1` (centres undefined), the figure is inactive: -0.784%. As to `CCOC(=O)N1CCC(Nc2ccc(OC)cc2)CC1`, the activity change is inactive: -0.0922%. As for `COc1ccc(Cl)cc1C(=O)NCC1(N2CCOCC2)CCCCC1`, the activity change is inactive: -0.332%.

In the case of `O=C1C(O)=C([N+](=O)[O-])C(=O)C(O)=C1[N+](=O)[O-]`, the activity change is inactive: -2.55%. As for `O=C(NCC1(N2CCCCC2)CCCCC1)c1ccc(Cl)s1`, the figure is inactive: -1.19%; as for `N#CC1(Nc2ccccc2)CCN(Cc2ccccc2)CC1`, inactive: -1.4%. For `O=c1[nH]c2ccccc2n1C1CCN(C(c2cc3ccccc3o2)c2nnnn2C2CCCCC2)CC1` (centres undefined), the activity change is inactive: 2.14%. Regarding `O=C(OC1CN2CCC1CC2)C1c2ccccc2Oc2ccccc21` (centres undefined), the activity change is inactive: 1.45%. Regarding `O=C(NCC1(N2CCOCC2)CCCCC1)c1cc2ccccc2o1`, the activity change is inactive: -0.719%. In the case of `Cc1cc(C)cc(N(C(=O)c2ccccc2)C2CCN(C(=O)OC(C)(C)C)CC2)c1` it was inactive: 0.429%. Consider `O=C(NCC1(N2CCCCC2)CCCCC1)c1ccc(Cl)nc1`, for which the activity change is inactive: 0.0389%. Consider `O=c1[nH]c2ccccc2n1C1CCN(C(c2ccccc2OC(F)(F)F)c2nnnn2C2CCCCC2)CC1` (centres undefined), for which the activity change is inactive: 1.08%.

Take `CCOC(=O)N1CCC(Nc2ccc(F)cc2)CC1`: the activity change was inactive: -0.713%. For the compound `COc1ccc(NC2CCN(CCc3ccccc3)CC2)c(OC)c1`, the activity change was inactive: -0.858%.

`CCCCOc1ccc(C(=O)NCC2(N3CCOCC3)CCCCC2)cc1`: the activity change is inactive: 1.79%. Regarding `CCCCn1nnnc1C(c1cc2ccccc2o1)N1CCC(n2c(=O)[nH]c3ccccc32)CC1` (centres undefined), the activity change is inactive: -0.193%. Consider `O=P1(N(CCCl)CCCl)SCCCS1`, for which the activity change was inactive: 3.27%. As for `O=C(NCC1(N2CCCCC2)CCCCC1)c1ccc(F)cc1`, the figure is inactive: 0.469%; as for `CCOc1ccc(C)cc1CN(CCCl)CCCl`, inactive: 1.57%; as for `O=C1CCN(Cc2ccccc2)CC1`, inactive: -0.754%. As for `CC(C)(C)n1nnnc1C(c1ccccc1)N1CCC(n2c(=O)[nH]c3ccccc32)CC1` (centres undefined), the activity change is inactive: -0.0698%. For the compound `O=c1[nH]c2ccccc2n1C1CCN(C(c2cccc3ccccc23)c2nnnn2C2CCCC2)CC1` (centres undefined), the activity change was inactive: 0.8%. For `CCOC(=O)N1CCC(Nc2cccc(C)c2)CC1`, the activity change was inactive: -0.463%.

Turning to `COc1cc(C(=O)NCC2(N(C)C)CCCCC2)ccc1OC(F)F`, the activity change is inactive: -0.204%. With `O=c1[nH]c2ccccc2n1C1CCN(C(c2ccccc2)c2nnnn2C2CCCCC2)CC1` (centres undefined), the activity change was inactive: -0.102%. As for `Cc1ccc(NC2(C#N)CCN(Cc3ccccc3)CC2)cc1`, the activity change is inactive: 1.24%.

With `Fc1ccccc1NC1CCN(Cc2ccccc2)CC1`, the activity change was inactive: 2.11%. In the case of `Cc1ccc(Nc2c([N+](=O)[O-])cc([N+](=O)[O-])cc2[N+](=O)[O-])cc1` it was inactive: -0.581%; in that of `Cc1ccc(C(=O)NCC2(N3CCCCC3)CCCCC2)o1`, inactive: -1.33%; in that of `COc1cc(OC)cc(C(=O)NCC2(N3CCCCC3)CCCCC2)c1`, inactive: 1.1%. With `O=c1[nH]c2ccccc2n1C1CCN(C(c2ccnc3ccccc23)c2nnnn2C2CCCCC2)CC1` (centres undefined), the activity change was inactive: 0.735%.

Take `CCC(c1nnnn1C1CCCCC1)N1CCC(n2c(=O)[nH]c3ccccc32)CC1` (centres undefined): the activity change is inactive: 1.73%. As for `COc1cccc(C(c2nnnn2C2CCCCC2)N2CCC(n3c(=O)[nH]c4ccccc43)CC2)c1OC` (centres undefined), the figure is inactive: -2.28%; as for `CC(=O)N(c1ccccc1)C1CCNCC1`, inactive: -2.03%; as for `CN(C)c1ccc(C(=O)NCC2(N3CCCCC3)CCCCC2)cc1`, inactive: -2.27%. For `Cn1c(=O)[nH]cc(N(CCCl)CCCl)c1=O`, the activity change was inactive: 1.72%. As for `O=C(NCC1(N2CCCCC2)CCCCC1)c1ccco1`, the activity change was inactive: -1.31%. With `COc1ccc(C(c2nnnn2C2CCCCC2)N2CCC(n3c(=O)[nH]c4ccccc43)CC2)cc1` (centres undefined), the activity change was inactive: 0.333%. As for `CCN1CCC(Nc2cccc(F)c2)CC1`, the activity change was inactive: 0.918%. `CC(C)(C)n1nnnc1C(c1ccnc2ccccc12)N1CCC(n2c(=O)[nH]c3ccccc32)CC1` (centres undefined): the activity change is inactive: -0.832%. Turning to `Cc1ccccc1NC1(C#N)CCN(Cc2ccccc2)CC1`, the activity change was inactive: 0.17%.

For `O=c1[nH]c2ccccc2n1C1CCN(C(c2cc3ccccc3o2)c2nnnn2C2CCCC2)CC1` (centres undefined), the activity change is inactive: -0.372%. As for `CCCOc1ccc(C(=O)NCC2(N(C)C)CCCCC2)cc1`, the figure is inactive: -0.924%; as for `NN(c1ccccc1)C1CCN(CCc2ccccc2)CC1`, inactive: 0.298%. In the case of `O=C(O)C1(Nc2ccccc2)CCN(Cc2ccccc2)CC1`, the activity change was inactive: 0.75%. `CC(C)(C)OC(=O)N1CCC(Nc2ccccc2)CC1`: the activity change is inactive: 1.34%. Regarding `CN1CCC(Nc2ccc(F)c(Cl)c2)CC1`, the activity change was inactive: 1.32%. With `CCOc1ncccc1C(=O)NCC1(N2CCOCC2)CCCCC1`, the activity change is inactive: -0.578%.

With `CN1CCC(Nc2ccc(Cl)cc2)CC1`, the activity change was inactive: -1.32%. Take `CCC(CO)(C(=O)OC1CN2CCC1CC2)c1ccccc1` (centres undefined): the activity change is inactive: -2.22%. Consider `COc1cccc(C(=O)N(c2cc(C)cc(C)c2)C2CCN(C(=O)OC(C)(C)C)CC2)c1`, for which the activity change was inactive: -0.514%.

`COc1cc(OC)cc(C(=O)NCC2(N3CCOCC3)CCCCC2)c1`: the activity change is inactive: -1.47%. Consider `COc1cccc(C(c2nnnn2C2CCCC2)N2CCC(n3c(=O)[nH]c4ccccc43)CC2)c1OC` (centres undefined), for which the activity change is inactive: 1.21%.

With `O=c1[nH]c2ccccc2n1C1CCN(C(c2ccnc3ccccc23)c2nnnn2C2CCCC2)CC1` (centres undefined), the activity change is inactive: -0.168%.

For the compound `COc1ccc(C(=O)NCC2(N3CCOCC3)CCCCC2)cc1OC`, the activity change was inactive: 0.711%. Take `O=c1[nH]c2ccccc2n1C1CCN(C(c2cccs2)c2nnnn2C2CCCCC2)CC1` (centres undefined): the activity change is inactive: -2.13%.

For `O=C(NCC1(N2CCOCC2)CCCCC1)c1cc(Br)ccc1Cl`, the activity change was inactive: 1.18%.

In the case of `COc1cc(C(=O)NCC2(N3CCOCC3)CCCCC2)cc(OC)c1C`, the activity change is inactive: 2.01%.

Regarding `CCCCn1nnnc1C(c1ccccc1)N1CCC(n2c(=O)[nH]c3ccccc32)CC1` (centres undefined), the activity change is inactive: -2.86%. In the case of `CCCCn1nnnc1C(c1cccc(OC)c1OC)N1CCC(n2c(=O)[nH]c3ccccc32)CC1` (centres undefined) it was inactive: -2.52%. `O=c1[nH]c2ccccc2n1C1CCN(C(c2cccs2)c2nnnn2C2CCCC2)CC1` (centres undefined): the activity change is inactive: 0.725%. `O=C(O)c1cccc(Nc2c([N+](=O)[O-])cc([N+](=O)[O-])cc2[N+](=O)[O-])c1`: the activity change was inactive: 2.24%. Take `CCc1cc(C(=O)NCC2(N3CCCCC3)CCCCC2)sc1C`: the activity change is inactive: -3.08%. Take `O=C(OC1CN2CCC1CC2)C1c2ccccc2C=Cc2ccccc21` (centres undefined): the activity change is inactive: 1.24%. On to `N/C(=N\O)c1c(N)no[n+]1[O-]`, for which the activity change was inactive: -1.72%.

In the case of `CCOC(=O)N1CCC(Nc2ccc(C)cc2)CC1`, the activity change was inactive: -6.95%. As for `COc1cccc(C(c2nnnn2C(C)(C)C)N2CCC(n3c(=O)[nH]c4ccccc43)CC2)c1OC` (centres undefined), the figure is inactive: -0.903%. `CCOC(=O)C(CC)C1=NC(C)(C)Cc2ccccc21.O=[N+]([O-])c1cc([N+](=O)[O-])c(O)c([N+](=O)[O-])c1` (centres undefined): the activity change was inactive: -1.37%. For the compound `CC(C)(C)OC(=O)N1CCC(N(C(=O)c2ccccc2)c2ccc(Cl)cc2)CC1`, the activity change was inactive: -2.72%. In the case of `N#Cc1ccc(C(=O)NCC2(N3CCCCC3)CCCCC2)cc1`, the activity change is inactive: -15.1%. As for `CC(C)(C)n1nnnc1C(c1cccc2ccccc12)N1CCC(n2c(=O)[nH]c3ccccc32)CC1` (centres undefined), the figure is inactive: -2.6%; as for `CCCN1CCC(Nc2cc(OC)cc(OC)c2)CC1`, inactive: 1.15%.

In the case of `O=c1[nH]c2ccccc2n1C1CCN(C(c2ccccc2)c2nnnn2C2CCCC2)CC1` (centres undefined), the activity change is inactive: 0.764%.

Turning to `Cc1cc(N(CCCl)CCCl)ccc1C=O`, the activity change is inactive: -3.23%. As for `c1ccc(CN2CCC(Nc3ccccc3)CC2)cc1`, the activity change is inactive: 0.244%. Turning to `CN(C)C1(CNC(=O)c2cccc(C#N)c2)CCCCC1`, the activity change is inactive: -3.28%.
